Target: Focal adhesion kinase 1 (Homo sapiens, UniProt Q05397)
Assay: In Vitro Enzymatic Inhibitory Activity Assay

Amino acid sequences for entries named in this document (tags omitted).
UniProt Q05397, whole entry: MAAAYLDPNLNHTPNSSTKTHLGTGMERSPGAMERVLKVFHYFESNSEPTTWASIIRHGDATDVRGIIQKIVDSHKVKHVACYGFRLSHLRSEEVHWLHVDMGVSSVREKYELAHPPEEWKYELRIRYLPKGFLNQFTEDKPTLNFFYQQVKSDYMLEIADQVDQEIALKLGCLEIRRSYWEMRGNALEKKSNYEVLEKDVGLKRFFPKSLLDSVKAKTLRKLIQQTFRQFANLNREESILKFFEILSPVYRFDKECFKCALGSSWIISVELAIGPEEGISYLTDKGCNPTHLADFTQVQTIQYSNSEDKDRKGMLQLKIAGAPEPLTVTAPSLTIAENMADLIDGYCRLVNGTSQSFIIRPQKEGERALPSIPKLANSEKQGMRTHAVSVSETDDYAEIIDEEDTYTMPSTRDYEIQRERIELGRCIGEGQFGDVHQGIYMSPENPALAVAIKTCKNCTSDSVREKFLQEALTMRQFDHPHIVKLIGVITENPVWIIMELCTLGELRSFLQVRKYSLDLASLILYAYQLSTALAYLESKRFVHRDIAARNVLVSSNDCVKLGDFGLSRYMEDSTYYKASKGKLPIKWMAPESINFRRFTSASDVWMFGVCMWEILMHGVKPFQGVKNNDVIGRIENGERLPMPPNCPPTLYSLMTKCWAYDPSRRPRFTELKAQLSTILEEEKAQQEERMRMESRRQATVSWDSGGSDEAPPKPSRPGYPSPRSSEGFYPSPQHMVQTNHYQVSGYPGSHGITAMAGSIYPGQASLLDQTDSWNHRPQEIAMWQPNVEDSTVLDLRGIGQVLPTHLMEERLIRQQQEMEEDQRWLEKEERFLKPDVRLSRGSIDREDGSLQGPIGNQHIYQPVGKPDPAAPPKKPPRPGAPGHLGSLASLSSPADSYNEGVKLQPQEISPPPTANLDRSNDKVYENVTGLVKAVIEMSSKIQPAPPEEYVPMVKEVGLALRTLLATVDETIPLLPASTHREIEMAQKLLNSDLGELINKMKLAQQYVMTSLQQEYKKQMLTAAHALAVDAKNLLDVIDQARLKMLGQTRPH

Work on `C=CC(=O)N1CCC(CNC(=O)c2ccc(Nc3ncc(C(F)(F)F)c(NCc4nccnc4N(C)S(C)(=O)=O)n3)c(OC)c2)CC1` [US20250127800, Example 4] yielded an IC50 of 1.32 nM.

Source: BindingDB's records for patent US20250127800 (Signet Therapeutics, 2025)
